Data on one compound can be found in ChEMBL document CHEMBL3351934, “Monocyclic 4-amino-6-(phenylamino)-1,3,5-triazines as inhibitors of human DNA topoisomerase IIα” (Bioorg Med Chem Lett, 2014).

Structures are written as SMILES.

One experiment deals with HepG2. As to the kind of experiment: Cytotoxic activity against human HepG2 cells assessed as reduction in cell viability after 24 hrs by MTT assay. The experiment is classed as functional, cell-based. Background: Tetrazolium dyes change colour on reduction, which living cells bring about.
The subject of the next experiment is MCF7. As to the kind of experiment: Cytotoxic activity against human MCF7 cells assessed as reduction in cell viability after 24 hrs by MTT assay. The format is functional, cell-based.

In the case of `COc1ccc(Nc2nc(N)nc(CSC(=S)N3CCOCC3)n2)cc1`, the inhibition result in the experiment on HepG2 and with MCF7 was “Dose-dependent effect” throughout.
